IC50 data for 3 compounds are collected here from US9314468B2, “Chemokine receptor modulators” (Altiris Therapeutics, Inc., priority 2008, dated 2016).

Protein sequences, listed by entry. Tags and fused reporters are not part of them.
UniProt P61073, whole entry: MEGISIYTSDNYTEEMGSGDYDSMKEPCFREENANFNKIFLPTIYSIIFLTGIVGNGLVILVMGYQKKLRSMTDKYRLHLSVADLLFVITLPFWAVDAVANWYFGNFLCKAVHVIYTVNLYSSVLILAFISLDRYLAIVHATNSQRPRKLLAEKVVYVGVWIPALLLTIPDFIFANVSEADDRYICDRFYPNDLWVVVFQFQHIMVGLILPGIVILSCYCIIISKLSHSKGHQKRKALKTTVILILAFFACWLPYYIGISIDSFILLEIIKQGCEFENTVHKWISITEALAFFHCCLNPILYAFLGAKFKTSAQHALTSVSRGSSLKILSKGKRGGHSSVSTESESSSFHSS

The target in assay [1] is T1, CXCR4 (Homo sapiens (Human), UniProt P61073). Put plainly: Functional calcium mobilization assay (SDF-1α induced). Conditions: read-out: Ca Flux IC50. The class given is cell-based. The procedure: Functional modulation of CXCR4 was determined by calcium mobilization assay using leukemic lymphoid CEM cells, which naturally express high levels of CXCR4. Generally, the assay is carried out as follows: Cells are grown in vitro to confluency. On the day of the assay, cells are removed from the incubator, culture medium removed and replaced with a calcium sensitive dye (Calcium3 assay kit; Molecular Devices, Sunnyvale, Calif.). The cells are allowed to dye load for 45-60 min at 37° C. in the cell culture incubator and then allowed to equilibrate to room temperature for no more than 15 min before assay.
Compound plates were generated containing up to 3% dimethyl sulfoxide in media kept at room temperature. Test compounds were added to the cells at a 1:3 dilution, and calcium mobilization was measured using a Flex Station fluorescence imager (Molecular Devices). This first read was used to determine direct agonist activation of the CXCR4 receptor by the test compounds. […] Full dose response curves were generated daily for SDF-1a to calculate IC50 concentrations. The IC50 values are reported. In cases, where one was not determined, a percent inhibition at the 1 μM concentration was extrapolated.
Functional calcium mobilization assay was conducted as described in Example 27.
Background: A change in cytosolic calcium serves as a functional read-out for many receptors and channels.

Assay [2] addresses T1, CXCR4. The assay can be described thus: Cellular impedance change induced by SDF-1a (cellular dielectric spectroscopy). The class given is cell-based. Conditions: read-out: Antagonist IC50. The procedure:
This assay measures the change in impedance that occurs when cells are stimulated with SDF-1a. Changes in shape and cytoskeleton result in a change of impedance that is dependent on the activation of the CXCR4 receptor. This assay is contracted to MDS Pharma Services and performed as described in http://discovery.mdsps.com/Catalog/Services/Screening/CellKey/AssayDetails.aspx?id=7 (Assay 930070). Briefly, human HeLa cells expressing endogenous CXCR4 are grown in vitro and receptor activation in live cells is measured using cellular dielectric spectroscopy (CDS). EC50 is defined as a greater than 50% change in cellular impedance relative to the EC100 (10 nM SDF-1a) response. IC50 is defined as a greater than 50% inhibition of the cellular impedance change induced by an EC50 concentration of SDF-1a incubation at 30 minutes.

In general, IC50 refers to the concentration needed to halve the response being measured. With `OCCn1c2ccccc2c2ccnc(CN(CCCN3CCNCC3)[C@H]3CCCc4cccnc43)c21`, on CXCR4 [1] (CEM cells, SDF-1α challenge at EC80-EC90), the IC50 turned out to be 56 nM.
With `OCCn1c2ccccc2c2ccnc(CN(CCCN3CCNCC3)C3CCCc4cccnc43)c21` (stereo not drawn) [drawing 816], the concentration for half-maximal inhibition (IC50) at CXCR4 [2] was 12 nM.
As for `OCCn1c2ccccc2c2ccnc(CN(CCCN3CCNCC3)C3CCCc4cccnc43)c21` (stereo not drawn) [drawing 831], on CXCR4 [1] (Table 9, selected compounds), the IC50 is 56 nM.
